# Source: patent US20100297606A1 (KAGOSHIMA UNIVERSITY, published 2010)
# B1: synthetic peptide IMGpep-4K6R (peptide)
# peptide: GCTGYWPRAWGLCG
# modifications: N-terminal amino group biotinylated (biotin-spacer, Sulfo-NHS-LC-Biotin); disulfide bond between the two Cys
# notes: also called biotinylated IMGpep-4K6R
# Target: T1, anti-HER2 human antibody (Herceptin), acid-treated
# T1 construct: Same antibody as m38 after acid treatment and neutralisation; also called acid-treated anti-HER2 human IgG; acid-denatured anti-HER2 human IgG
# Assay: SPR, peptides on sensor chips, antibody 250 nM; acid treatment pH 1.5, 20 C, 10 min; reference Fc-III peptide
# Method: For this SPR analysis, human IgG samples were prepared via acid treatment under various conditions as described below and then tested. […] Subsequently, 30 μl (or 20 μl for a sample to which glycine-HCl with pH 2.7 had been added) of 1 M Tris-HCl (pH 8.7) was added to each solution for neutralization.
binder,measurement,value
B1,generation rate of acid-denatured IgG (ratio a/b of the SPR response on the IMGpep-4K6R chip to that on the Fc-III chip),12.8%
